{"source": "patent US20170311602A1", "about": "“METHODS AND COMPOSITIONS FOR THE CONTROL OF FUNGAL PATHOGENS IN CROP PLANTS” (Monsanto Technology LLC, priority 2014, published 2017)", "system": "Colletotrichum graminicola strains CG1 and BF0911", "settings": "22 days after inoculation", "key": {"[1]": {"settings": "Strain BF0911, 30 g a.i./100 kg seeds, untreated inoculated control rating 3"}, "[2]": {"settings": "Strain BF0911, 60 g a.i./100 kg seeds, untreated inoculated control rating 3"}, "[3]": {"settings": "Strain BF0911, 120 g a.i./100 kg seeds, untreated inoculated control rating 3"}, "[4]": {"settings": "Strain CG1, 30 g a.i./100 kg seeds, control rating 3"}, "[5]": {"settings": "Strain CG1, 60 g a.i./100 kg seeds, control rating 3"}, "[6]": {"settings": "Strain CG1, 120 g a.i./100 kg seeds, control rating 3"}}, "note": "Read-outs that look alike come from different tables or passages of the source."}
{"smiles": "CO/N=C(/C1=NOCCO1)c1ccccc1Oc1ncnc(Oc2ccccc2Cl)c1F", "note": "[Fluoxastrobin, fluoxastrobin]", "values": [{"measurement": "Efficacy", "setting": "[1]", "value": 0, "unit": "% abb"}, {"measurement": "Efficacy", "setting": "[2]", "value": 0, "unit": "% abb"}, {"measurement": "Efficacy", "setting": "[3]", "value": 30, "unit": "% abb"}, {"measurement": "Efficacy", "setting": "[4]", "value": 11, "unit": "% abb"}, {"measurement": "Efficacy", "setting": "[5]", "value": 22, "unit": "% abb"}, {"measurement": "Efficacy", "setting": "[6]", "value": 11, "unit": "% abb"}]}
{"smiles": "OC(Cc1ccccc1Cl)(Cn1nc[nH]c1=S)C1(Cl)CC1", "note": "(stereo not drawn) [Prothioconazole, prothioconazole]", "values": [{"measurement": "Efficacy", "setting": "[1]", "value": 0, "unit": "% abb"}, {"measurement": "Efficacy", "setting": "[2]", "value": 0, "unit": "% abb"}, {"measurement": "Efficacy", "setting": "[3]", "value": 20, "unit": "% abb"}, {"measurement": "Efficacy", "setting": "[4]", "value": 0, "unit": "% abb"}, {"measurement": "Efficacy", "setting": "[5]", "value": 6, "unit": "% abb"}, {"measurement": "Efficacy", "setting": "[6]", "value": 17, "unit": "% abb"}]}
